Measurements from patent US7332495B2 (priority 2002, dated 2008).

Tested on: NMDA receptor
Assay: Electrophysiology of hippocampus's pyramidal cell: NMDA-induced current
Format: cell-based
Conditions: perfusion alone at 200 μM

Nc1ccc(CN2CCN(CC(=O)c3ccccc3)CC2)cc1 [IV-12, N^1-(4-aminobenzyl)-N^4-phenacyl piperazine] was tested, and the “Effect on electric current of resting membrane” value was “did not affect”.
